The results in this text go back to patent US20090099157A1, “TETRAHYDRO-PYRAZOLO-PYRIDINE THIOETHER MODULATORS OF CATHEPSIN S” (priority 2007, published 2009).

Chains of the proteins cited; added tags and fusions are not shown. Residues count along the entry.
UniProt P25774, 115-331: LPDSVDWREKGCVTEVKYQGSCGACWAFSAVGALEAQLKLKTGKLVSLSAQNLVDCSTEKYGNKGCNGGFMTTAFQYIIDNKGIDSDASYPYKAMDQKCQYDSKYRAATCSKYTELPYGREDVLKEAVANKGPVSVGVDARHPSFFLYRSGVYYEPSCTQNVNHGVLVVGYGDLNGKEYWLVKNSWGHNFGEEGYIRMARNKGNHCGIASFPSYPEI

The experiment has as its target Recombinant human cathepsin S (CatS) (Homo sapiens, UniProt P25774). As to the kind of experiment: biochemical.

As usually defined, the IC50 is the point on the concentration scale where inhibition reaches its midpoint.

Molecules are shown by their SMILES.

Take `CC(=O)N1CCc2c(c(-c3ccc(C(F)(F)F)c(SCC(=O)N4CCCC4)c3)nn2CC(O)CN2CC3CCCC3C2)C1` (stereo not drawn) [Example 329, 1-(5-Acetyl-3-{3-[(2-oxo-2-pyrrolidin-1-ylethyl)sulfanyl]-4-(trifluoromethyl)phenyl}-4,5,6,7-tetrahydro-1H-pyrazolo[4,3-c]pyridin-1-yl)-3-(hexahydrocyclopenta[c]pyrrol-2(1H)-yl)propan-2-ol]: the IC50 turned out to be 170 nM.

Turning to `CS(=O)(=O)N1CCc2c(c(-c3ccc(C(F)(F)F)c(SCCN4CCC(F)CC4)c3)nn2CC(O)CN2CCCC(O)C2)C1` (stereo not drawn) [Example 486, 1-(3-{3-[3-{[2-(4-Fluoropiperidin-1-yl)ethyl]sulfanyl}-4-(trifluoromethyl)phenyl]-5-(methylsulfonyl)-4,5,6,7-tetrahydro-1H-pyrazolo[4,3-c]pyridin-1-yl}-2-hydroxypropyl)piperidin-3-ol], the IC50 is 290 nM.

As for `C[C@H](O)C(=O)N1CCc2c(c(-c3ccc(C(F)(F)F)c(SCCN4CCC(F)CC4)c3)nn2C[C@@H](O)CN2CCCCC2)C1` [Example 371, (2S)-1-{3-[3-{[2-(4-Fluoropiperidin-1-yl)ethyl]sulfanyl}-4-(trifluoromethyl)phenyl]-1-[(2S)-2-hydroxy-3-piperidin-1-ylpropyl]-1,4,6,7-tetrahydro-5H-pyrazolo[4,3-c]pyridin-5-yl}-1-oxopropan-2-ol], the IC50 was found to be 250 nM.

As for `CS(=O)(=O)N1CCc2c(c(-c3ccc(C(F)(F)F)c(SCCNC(=O)c4ccccc4)c3)nn2CC(O)CN2CCC(N3CCCC3=O)CC2)C1` (stereo not drawn) [Example 114, N-{2-[5-(1-{2-Hydroxy-3-[4-(2-oxo-pyrrolidin-1-yl)-piperidin-1-yl]-propyl}-5-methanesulfonyl-4,5,6,7-tetrahydro-1H-pyrazolo[4,3-c]pyridin-3-yl)-2-trifluoromethyl-phenylsulfanyl]-ethyl}-benzamide], the IC50 is 380 nM.

On to `CS(=O)(=O)N1CCc2c(c(-c3ccc(C(F)(F)F)c(SCCN4CCC(F)(F)C4)c3)nn2CC(O)CN2CCCCC2)C1` (stereo not drawn) [Example 421, 1-{3-[3-{[2-(3,3-Difluoropyrrolidin-1-yl)ethyl]sulfanyl}-4-(trifluoromethyl)phenyl]-5-(methylsulfonyl)-4,5,6,7-tetrahydro-1H-pyrazolo[4,3-c]pyridin-1-yl}-3-piperidin-1-ylpropan-2-ol], for which the IC50 was determined as 260 nM.

On to `CC(C)(C)C1CCN(C[C@H](O)Cn2nc(-c3ccc(C(F)(F)F)c(SCCN4CCCC(F)C4)c3)c3c2CCN(S(C)(=O)=O)C3)CC1` (stereo partly drawn) [Example 652, (2S)-1-[4-(1,1-Dimethylethyl)piperidin-1-yl]-3-{3-[3-{[2-(3-fluoropiperidin-1-yl)ethyl]sulfanyl}-4-(trifluoromethyl)phenyl]-5-(methylsulfonyl)-4,5,6,7-tetrahydro-1H-pyrazolo[4,3-c]pyridin-1-yl}propan-2-ol], for which the IC50 came to 70 nM.

Consider `CS(=O)(=O)N1CCc2c(c(-c3ccc(C(F)(F)F)c(SCC(=O)N4CC=C(c5ccccc5)CC4)c3)nn2CCCN2CCC(N3CCCC3=O)CC2)C1` [Example 106, 1-{1-[3-(5-Methanesulfonyl-3-{3-[2-oxo-2-(4-phenyl-3,6-dihydro-2H-pyridin-1-yl)-ethylsufanyl]-4-trifluoromethyl-phenyl}-4,5,6,7-tetrahydro-pyrazolo[4,3-c]pyridin-1-yl)-propyl]-piperidin-4-yl}-pyrrolidin-2-one], for which the IC50 stood at 290 nM.

Turning to `CS(=O)(=O)N1CCc2c(c(-c3ccc(C(F)(F)F)c(SCCN4CCOCC4)c3)nn2CC(O)CN2CCC(c3ccccc3)CC2)C1` (stereo not drawn) [Example 662, 1-[5-(Methylsulfonyl)-3-{3-[(2-morpholin-4-ylethyl)sulfanyl]-4-(trifluoromethyl)phenyl}-4,5,6,7-tetrahydro-1H-pyrazolo[4,3-c]pyridin-1-yl]-3-(4-phenylpiperidin-1-yl)propan-2-ol], the IC50 worked out at 23 nM.

Turning to `CC(C)CNCCSc1cc(-c2nn(CCCN3CCC(N4CCCC4=O)CC3)c3c2CN(S(C)(=O)=O)CC3)ccc1C(F)(F)F` [Example 592, 1-[1-(3-{3-[3-({2-[(2-Methylpropyl)amino]ethyl}sulfanyl)-4-(trifluoromethyl)phenyl]-5-(methylsulfonyl)-4,5,6,7-tetrahydro-1H-pyrazolo[4,3-c]pyridin-1-yl}propyl)piperidin-4-yl]pyrrolidin-2-one], the IC50 is 190 nM.

As to `CS(=O)(=O)N1CCc2c(c(-c3ccc(C(F)(F)F)c(SCCN4C=NCCC4)c3)nn2C[C@@H](O)CN2CCCCC2)C1` [Example 215, (2S)-1-{3-[3-{[2-(5,6-Dihydropyrimidin-1(4H)-yl)ethyl]sulfanyl}-4-(trifluoromethyl)phenyl]-5-(methylsulfonyl)-4,5,6,7-tetrahydro-1H-pyrazolo[4,3-c]pyridin-1-yl}-3-piperidin-1-ylpropan-2-ol], the IC50 amounted to 1290 nM.

Regarding `O=C(CSc1cc(-c2nn(CC(O)CN3CCC(N4CCCC4=O)CC3)c3c2CNCC3)ccc1C(F)(F)F)N1CCOCC1` (stereo not drawn) [Example 267, 1-{1-[2-Hydroxy-3-(3-{3-[(2-morpholin-4-yl-2-oxoethyl)sulfanyl]-4-(trifluoromethyl)phenyl}-4,5,6,7-tetrahydro-1H-pyrazolo[4,3-c]pyridin-1-yl)propyl]piperidin-4-yl}pyrrolidin-2-one], the IC50 was found to be 410 nM.

In the case of `CS(=O)(=O)N1CCc2c(c(-c3ccc(C(F)(F)F)c(SCC(=O)NC4CCCC4)c3)nn2CC(O)CN2CCC(C(=O)N3CCOCC3)CC2)C1` (stereo not drawn) [Example 846, N-Cyclopentyl-2-({5-[1-{2-hydroxy-3-[4-(morpholin-4-ylcarbonyl)piperidin-1-yl]propyl}-5-(methylsulfonyl)-4,5,6,7-tetrahydro-1H-pyrazolo[4,3-c]pyridin-3-yl]-2-(trifluoromethyl)phenyl}sulfanyl)acetamide], the IC50 was 480 nM.

Take `CN1CCC(N(C)C(=O)CSc2cc(-c3nn(CCCN4CCC(N5CCCC5=O)CC4)c4c3CN(S(C)(=O)=O)CC4)ccc2C(F)(F)F)CC1` [Example 99, 2-[5-(5-Methanesulfonyl-1-{3-[4-(2-oxo-pyrrolidin-1-yl)-piperidin-1-yl]-propyl}-4,5,6,7-tetrahydro-1H-pyrazolo[4,3-c]pyridin-3-yl)-2-trifluoromethylphenylsulfanyl]-N-methyl-N-(1-methyl-piperidin-4-yl)-acetamide]: the IC50 was 1260 nM.

For the molecule `CS(=O)(=O)N1CCc2c(c(-c3ccc(C(F)(F)F)c(SCC(=O)N4CCOCC4)c3)nn2CC(O)CN2CCC(N3CCCC3)CC2)C1` (stereo not drawn) [Example 686, 1-[5-(Methylsulfonyl)-3-{3-[(2-morpholin-4-yl-2-oxoethyl)sulfanyl]-4-(trifluoromethyl)phenyl}-4,5,6,7-tetrahydro-1H-pyrazolo[4,3-c]pyridin-1-yl]-3-(4-pyrrolidin-1-ylpiperidin-1-yl)propan-2-ol], the IC50 stood at 170 nM.

`CS(=O)(=O)N1CCc2c(c(-c3ccc(C(F)(F)F)c(SCCN4CCCC4)c3)nn2CC(O)CN2CCC(O)(c3ccccn3)CC2)C1` (stereo not drawn) [Example 670, 1-{2-Hydroxy-3-[5-(methylsulfonyl)-3-{3-[(2-pyrrolidin-1-ylethyl)sulfanyl]-4-(trifluoromethyl)phenyl}-4,5,6,7-tetrahydro-1H-pyrazolo[4,3-c]pyridin-1-yl]propyl}-4-pyridin-2-ylpiperidin-4-ol]: the IC50 was determined as 120 nM.

Turning to `CS(=O)(=O)N1CCc2c(c(-c3ccc(C(F)(F)F)c(SCCN4CCCCC4)c3)nn2CC(O)CN2CCC(c3nnnn3Cc3ccccc3)CC2)C1` (stereo not drawn) [Example 879, 1-[5-(Methylsulfonyl)-3-{3-[(2-piperidin-1-ylethyl)sulfanyl]-4-(trifluoromethyl)phenyl}-4,5,6,7-tetrahydro-1H-pyrazolo[4,3-c]pyridin-1-yl]-3-{4-[1-(phenylmethyl)-1H-tetrazol-5-yl]piperidin-1-yl}propan-2-ol], the IC50 is 80 nM.

Take `CC(=O)N1CCN(CCSc2cc(-c3nn(CC(O)CN4CCC(C(=O)N5CCCC5)CC4)c4c3CN(S(C)(=O)=O)CC4)ccc2C(F)(F)F)CC1` (stereo not drawn) [Example 860, 1-{3-[3-{[2-(4-Acetylpiperazin-1-yl)ethyl]sulfanyl}-4-(trifluoromethyl)phenyl]-5-(methylsulfonyl)-4,5,6,7-tetrahydro-1H-pyrazolo[4,3-c]pyridin-1-yl}-3-[4-(pyrrolidin-1-ylcarbonyl)piperidin-1-yl]propan-2-ol]: the IC50 was 370 nM.

With `CC1CCN(CCSc2cc(-c3nn(C[C@@H](O)CN4CCC(C5CCCCC5)CC4)c4c3CN(S(C)(=O)=O)CC4)ccc2C(F)(F)F)CC1` [Example 741, (2S)-1-(4-Cyclohexylpiperidin-1-yl)-3-{3-[3-{[2-(4-methylpiperidin-1-yl)ethyl]sulfanyl}-4-(trifluoromethyl)phenyl]-5-(methylsulfonyl)-4,5,6,7-tetrahydro-1H-pyrazolo[4,3-c]pyridin-1-yl}propan-2-ol], the IC50 is 20 nM.

On to `O=C(CO)N1CCc2c(c(-c3ccc(C(F)(F)F)c(SCCN4CCC(F)(F)C4)c3)nn2CC(O)CN2CCC(Oc3ncccn3)CC2)C1` (stereo not drawn) [Example 739, 1-{3-[3-{[2-(3,3-Difluoropyrrolidin-1-yl)ethyl]sulfanyl}-4-(trifluoromethyl)phenyl]-5-(hydroxyacetyl)-4,5,6,7-tetrahydro-1H-pyrazolo[4,3-c]pyridin-1-yl}-3-[4-(pyrimidin-2-yloxy)piperidin-1-yl]propan-2-ol], for which the IC50 came to 60 nM.

`CC(=O)N1CCc2c(c(-c3ccc(C(F)(F)F)c(SCCN4CCC(F)CC4)c3)nn2C[C@@H](O)CN2CCCCC2)C1` [Example 321, (2S)-1-{5-Acetyl-3-[3-{[2-(4-fluoropiperidin-1-yl)ethyl]sulfanyl}-4-(trifluoromethyl)phenyl]-4,5,6,7-tetrahydro-1H-pyrazolo[4,3-c]pyridin-1-yl}-3-piperidin-1-ylpropan-2-ol]: the IC50 is 390 nM.

In the case of `CS(=O)(=O)N1CCc2c(c(-c3ccc(C(F)(F)F)c(SCC(=O)NC4CCCC4)c3)nn2CC(O)CN2CCC(c3n[nH]c(=O)[nH]3)CC2)C1` (stereo not drawn) [Example 744, N-Cyclopentyl-2-({5-[1-{2-hydroxy-3-[4-(5-oxo-4,5-dihydro-1H-1,2,4-triazol-3-yl)piperidin-1-yl]propyl}-5-(methylsulfonyl)-4,5,6,7-tetrahydro-1H-pyrazolo[4,3-c]pyridin-3-yl]-2-(trifluoromethyl)phenyl}sulfanyl)acetamide], the IC50 is 1790 nM.
